Test results from ChEMBL document CHEMBL2429762, “Structure-activity relationship study of indole-2-carboxamides identifies a potent allosteric modulator for the cannabinoid receptor 1 (CB1)” (J Med Chem, 2013).

The chains behind the UniProt entries cited, without tags or fusion partners.
UniProt P21554, whole entry: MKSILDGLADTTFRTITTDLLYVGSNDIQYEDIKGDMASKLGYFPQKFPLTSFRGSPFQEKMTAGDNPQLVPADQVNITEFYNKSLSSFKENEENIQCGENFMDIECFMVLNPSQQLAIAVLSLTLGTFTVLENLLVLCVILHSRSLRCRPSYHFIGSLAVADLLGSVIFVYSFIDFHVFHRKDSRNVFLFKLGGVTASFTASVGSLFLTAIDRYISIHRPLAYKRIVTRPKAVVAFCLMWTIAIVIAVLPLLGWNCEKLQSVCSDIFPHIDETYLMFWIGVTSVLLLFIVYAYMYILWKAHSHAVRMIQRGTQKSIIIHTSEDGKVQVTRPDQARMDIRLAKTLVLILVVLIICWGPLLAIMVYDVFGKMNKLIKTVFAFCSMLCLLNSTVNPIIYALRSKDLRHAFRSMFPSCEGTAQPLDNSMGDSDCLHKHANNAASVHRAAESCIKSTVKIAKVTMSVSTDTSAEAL

Molecular target: Cannabinoid receptor 1 (Homo sapiens) (UniProt P21554)
Experiment: Positive allosteric modulation of CB1 receptor (unknown origin) expressed in HEK293 cell membranes assessed as stimulation of [3H]CP55,940 binding after 60 mins by liquid scintillation counting analysis
Method in brief: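 Nonspecific binding was taken with 1 μM unlabeled CP55,940. Samples were filtered on GF/C and counted by scintillation. Runs were in duplicate, ≥3 experiments. α and KB came from nonlinear regression to the allosteric ternary complex model, with [A] and KA fixed.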

CCCCCc1c(C(=O)NCCc2ccc(N3CCCCC3)cc2)[nH]c2ccc(Cl)cc12 showed a Kb of 470 nM.
